Test results: ChEMBL document CHEMBL3872262, “Synthesis of novel C4-benzazole naphthalimide derivatives with potent anti-tumor properties against murine melanoma” (Bioorg Med Chem, 2017)

Test system: B16-F10
Assay: Cytotoxicity against mouse B16F10 cells measured after 2 days by MTS assay
Format: functional, cell-based

SMILES | Activity
CN(C)CCN1C(=O)c2cccc3c(-c4nc5ccccc5s4)ccc(c23)C1=O | Dose-dependent effect
CN(C)CCN1C(=O)c2cccc3c(-c4nc5ccccc5o4)ccc(c23)C1=O | Dose-dependent effect
